Where “and” joins values, the source holds several entries; their conditions need not be identical. Identical values can stand only once. Like-named read-outs stand apart in the source and are kept apart here.
Key:
AXL = target: T1, AXL (Homo sapiens, UniProt P30530); assay: HotSpot kinase assay; format: biochemical; settings: 10µM
T1 construct: purchased Reaction Biology Corporation

Chains of the proteins cited; added tags and fusions are not shown. Lines headed by an entry give the natural chain unless they say otherwise; changes in a name come on top. Residues count along the entry.
UniProt P30530, 26-894: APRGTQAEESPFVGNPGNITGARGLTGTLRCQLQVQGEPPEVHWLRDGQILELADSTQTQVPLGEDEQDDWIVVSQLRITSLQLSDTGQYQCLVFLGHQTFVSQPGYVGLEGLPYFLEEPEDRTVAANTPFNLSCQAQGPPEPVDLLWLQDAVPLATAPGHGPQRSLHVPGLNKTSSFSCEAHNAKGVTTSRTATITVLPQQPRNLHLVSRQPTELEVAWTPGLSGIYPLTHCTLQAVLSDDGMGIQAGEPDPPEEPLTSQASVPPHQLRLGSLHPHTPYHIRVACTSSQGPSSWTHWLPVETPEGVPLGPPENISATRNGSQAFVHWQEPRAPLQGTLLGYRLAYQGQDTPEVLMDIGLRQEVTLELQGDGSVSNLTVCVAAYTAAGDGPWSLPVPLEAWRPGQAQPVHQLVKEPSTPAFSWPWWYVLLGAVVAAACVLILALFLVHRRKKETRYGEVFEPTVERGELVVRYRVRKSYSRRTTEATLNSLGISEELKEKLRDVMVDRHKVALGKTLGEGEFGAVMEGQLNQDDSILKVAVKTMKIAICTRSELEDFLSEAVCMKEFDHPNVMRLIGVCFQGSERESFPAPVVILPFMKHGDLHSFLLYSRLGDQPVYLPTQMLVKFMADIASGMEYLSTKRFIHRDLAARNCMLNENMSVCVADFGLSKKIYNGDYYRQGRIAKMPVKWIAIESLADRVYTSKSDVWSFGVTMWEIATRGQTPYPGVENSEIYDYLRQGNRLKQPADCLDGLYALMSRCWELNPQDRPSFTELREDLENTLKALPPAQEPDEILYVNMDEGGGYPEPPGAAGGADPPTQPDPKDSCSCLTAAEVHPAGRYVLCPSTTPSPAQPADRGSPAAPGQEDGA
UniProt Q00536: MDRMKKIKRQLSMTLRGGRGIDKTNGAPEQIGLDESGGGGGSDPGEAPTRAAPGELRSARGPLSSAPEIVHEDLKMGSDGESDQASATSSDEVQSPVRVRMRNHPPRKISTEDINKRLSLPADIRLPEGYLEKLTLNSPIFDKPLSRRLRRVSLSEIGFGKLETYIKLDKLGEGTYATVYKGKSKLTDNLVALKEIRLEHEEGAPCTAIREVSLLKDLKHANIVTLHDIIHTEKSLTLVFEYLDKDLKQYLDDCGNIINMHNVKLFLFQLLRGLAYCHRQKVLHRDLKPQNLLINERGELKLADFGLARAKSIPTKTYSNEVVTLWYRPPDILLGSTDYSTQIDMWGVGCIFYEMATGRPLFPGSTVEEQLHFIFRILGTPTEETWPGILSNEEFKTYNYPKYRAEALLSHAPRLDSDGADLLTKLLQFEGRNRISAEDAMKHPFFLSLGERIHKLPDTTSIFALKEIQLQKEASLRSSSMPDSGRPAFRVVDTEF
UniProt Q5TCX8: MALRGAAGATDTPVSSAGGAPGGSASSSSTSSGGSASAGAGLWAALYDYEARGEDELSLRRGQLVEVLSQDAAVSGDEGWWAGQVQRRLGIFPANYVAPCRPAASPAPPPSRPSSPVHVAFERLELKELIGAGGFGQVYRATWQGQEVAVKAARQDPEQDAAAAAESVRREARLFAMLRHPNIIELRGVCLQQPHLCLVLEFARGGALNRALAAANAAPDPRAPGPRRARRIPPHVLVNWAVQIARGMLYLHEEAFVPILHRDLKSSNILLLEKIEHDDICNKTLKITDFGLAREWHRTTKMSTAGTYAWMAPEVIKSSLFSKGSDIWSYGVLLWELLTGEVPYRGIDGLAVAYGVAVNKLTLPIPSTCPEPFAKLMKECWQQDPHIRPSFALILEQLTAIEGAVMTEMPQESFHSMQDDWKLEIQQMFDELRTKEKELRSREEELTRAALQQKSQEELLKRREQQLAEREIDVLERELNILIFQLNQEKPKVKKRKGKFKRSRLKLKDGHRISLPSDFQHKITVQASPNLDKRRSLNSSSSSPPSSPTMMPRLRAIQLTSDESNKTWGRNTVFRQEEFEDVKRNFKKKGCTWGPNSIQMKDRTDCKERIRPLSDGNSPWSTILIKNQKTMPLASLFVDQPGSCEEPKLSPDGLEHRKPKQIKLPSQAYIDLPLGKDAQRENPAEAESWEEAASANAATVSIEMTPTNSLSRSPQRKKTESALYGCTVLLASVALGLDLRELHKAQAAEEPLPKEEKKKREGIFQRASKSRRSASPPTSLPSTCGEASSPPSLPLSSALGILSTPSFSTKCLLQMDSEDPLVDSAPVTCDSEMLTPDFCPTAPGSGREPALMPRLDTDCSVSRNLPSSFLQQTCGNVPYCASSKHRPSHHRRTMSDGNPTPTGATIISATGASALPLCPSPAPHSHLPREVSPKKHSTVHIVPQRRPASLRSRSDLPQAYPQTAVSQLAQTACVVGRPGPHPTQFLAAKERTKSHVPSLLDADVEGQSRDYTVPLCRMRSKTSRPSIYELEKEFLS
UniProt P16234, 24-1089: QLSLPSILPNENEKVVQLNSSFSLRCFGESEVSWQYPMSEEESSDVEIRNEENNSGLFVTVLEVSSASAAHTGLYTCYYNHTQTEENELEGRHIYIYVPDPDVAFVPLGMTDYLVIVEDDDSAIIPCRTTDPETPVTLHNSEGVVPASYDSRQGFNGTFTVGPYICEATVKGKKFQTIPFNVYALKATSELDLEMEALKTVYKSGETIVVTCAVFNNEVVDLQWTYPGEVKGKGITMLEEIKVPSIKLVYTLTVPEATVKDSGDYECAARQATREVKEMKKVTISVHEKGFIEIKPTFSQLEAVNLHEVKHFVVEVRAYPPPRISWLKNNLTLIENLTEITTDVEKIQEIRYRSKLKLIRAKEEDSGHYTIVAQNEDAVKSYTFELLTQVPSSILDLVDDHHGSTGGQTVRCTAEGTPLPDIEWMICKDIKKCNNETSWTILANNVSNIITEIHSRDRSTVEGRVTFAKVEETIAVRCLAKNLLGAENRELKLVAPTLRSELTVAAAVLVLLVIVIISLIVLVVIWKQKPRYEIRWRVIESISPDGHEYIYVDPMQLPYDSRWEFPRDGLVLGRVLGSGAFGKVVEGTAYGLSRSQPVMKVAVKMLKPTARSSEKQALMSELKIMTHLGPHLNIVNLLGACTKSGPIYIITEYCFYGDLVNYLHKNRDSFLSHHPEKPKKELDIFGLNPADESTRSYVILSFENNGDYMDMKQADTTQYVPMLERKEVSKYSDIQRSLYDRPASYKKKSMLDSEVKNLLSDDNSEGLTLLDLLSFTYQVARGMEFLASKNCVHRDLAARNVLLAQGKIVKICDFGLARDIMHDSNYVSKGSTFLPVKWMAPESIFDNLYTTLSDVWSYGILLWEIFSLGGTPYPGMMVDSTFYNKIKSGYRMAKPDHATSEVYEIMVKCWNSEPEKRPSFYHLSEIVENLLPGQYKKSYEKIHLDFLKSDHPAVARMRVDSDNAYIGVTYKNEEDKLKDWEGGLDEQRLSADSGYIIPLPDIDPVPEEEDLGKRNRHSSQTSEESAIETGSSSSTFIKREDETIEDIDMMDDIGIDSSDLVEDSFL
UniProt Q13464: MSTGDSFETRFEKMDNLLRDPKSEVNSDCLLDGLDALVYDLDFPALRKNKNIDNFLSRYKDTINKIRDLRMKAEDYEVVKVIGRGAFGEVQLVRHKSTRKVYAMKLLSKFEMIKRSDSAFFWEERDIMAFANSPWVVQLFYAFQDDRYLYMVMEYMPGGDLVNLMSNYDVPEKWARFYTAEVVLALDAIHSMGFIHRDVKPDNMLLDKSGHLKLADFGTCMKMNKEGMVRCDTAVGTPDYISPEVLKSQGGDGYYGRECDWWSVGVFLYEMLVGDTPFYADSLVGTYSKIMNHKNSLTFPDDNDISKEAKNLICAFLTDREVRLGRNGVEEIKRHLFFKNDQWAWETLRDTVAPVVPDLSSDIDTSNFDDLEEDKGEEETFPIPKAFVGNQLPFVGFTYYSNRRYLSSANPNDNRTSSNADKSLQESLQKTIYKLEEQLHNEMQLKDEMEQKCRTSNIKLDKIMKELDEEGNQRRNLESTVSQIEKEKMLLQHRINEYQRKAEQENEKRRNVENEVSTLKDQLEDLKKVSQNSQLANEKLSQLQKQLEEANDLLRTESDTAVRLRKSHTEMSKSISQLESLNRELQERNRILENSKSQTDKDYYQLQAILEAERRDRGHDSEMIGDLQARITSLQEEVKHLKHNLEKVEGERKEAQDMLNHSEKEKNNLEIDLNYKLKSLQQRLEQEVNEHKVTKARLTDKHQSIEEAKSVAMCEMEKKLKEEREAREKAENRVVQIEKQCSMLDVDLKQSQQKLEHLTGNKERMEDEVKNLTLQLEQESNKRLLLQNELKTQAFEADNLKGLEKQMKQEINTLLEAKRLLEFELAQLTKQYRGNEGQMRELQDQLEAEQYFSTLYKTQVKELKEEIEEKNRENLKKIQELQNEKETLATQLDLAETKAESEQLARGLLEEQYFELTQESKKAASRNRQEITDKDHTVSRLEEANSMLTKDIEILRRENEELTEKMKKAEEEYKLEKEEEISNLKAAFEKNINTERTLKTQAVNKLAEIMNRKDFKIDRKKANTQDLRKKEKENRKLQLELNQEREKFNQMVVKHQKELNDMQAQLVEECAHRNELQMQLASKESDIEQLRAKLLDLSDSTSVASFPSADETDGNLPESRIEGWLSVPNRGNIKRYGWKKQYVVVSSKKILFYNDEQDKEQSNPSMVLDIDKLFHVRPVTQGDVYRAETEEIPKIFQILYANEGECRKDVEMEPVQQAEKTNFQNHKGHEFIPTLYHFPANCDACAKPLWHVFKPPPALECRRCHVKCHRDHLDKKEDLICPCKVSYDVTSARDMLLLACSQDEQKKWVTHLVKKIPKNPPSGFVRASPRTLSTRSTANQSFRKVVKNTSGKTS
UniProt Q9Y2K2: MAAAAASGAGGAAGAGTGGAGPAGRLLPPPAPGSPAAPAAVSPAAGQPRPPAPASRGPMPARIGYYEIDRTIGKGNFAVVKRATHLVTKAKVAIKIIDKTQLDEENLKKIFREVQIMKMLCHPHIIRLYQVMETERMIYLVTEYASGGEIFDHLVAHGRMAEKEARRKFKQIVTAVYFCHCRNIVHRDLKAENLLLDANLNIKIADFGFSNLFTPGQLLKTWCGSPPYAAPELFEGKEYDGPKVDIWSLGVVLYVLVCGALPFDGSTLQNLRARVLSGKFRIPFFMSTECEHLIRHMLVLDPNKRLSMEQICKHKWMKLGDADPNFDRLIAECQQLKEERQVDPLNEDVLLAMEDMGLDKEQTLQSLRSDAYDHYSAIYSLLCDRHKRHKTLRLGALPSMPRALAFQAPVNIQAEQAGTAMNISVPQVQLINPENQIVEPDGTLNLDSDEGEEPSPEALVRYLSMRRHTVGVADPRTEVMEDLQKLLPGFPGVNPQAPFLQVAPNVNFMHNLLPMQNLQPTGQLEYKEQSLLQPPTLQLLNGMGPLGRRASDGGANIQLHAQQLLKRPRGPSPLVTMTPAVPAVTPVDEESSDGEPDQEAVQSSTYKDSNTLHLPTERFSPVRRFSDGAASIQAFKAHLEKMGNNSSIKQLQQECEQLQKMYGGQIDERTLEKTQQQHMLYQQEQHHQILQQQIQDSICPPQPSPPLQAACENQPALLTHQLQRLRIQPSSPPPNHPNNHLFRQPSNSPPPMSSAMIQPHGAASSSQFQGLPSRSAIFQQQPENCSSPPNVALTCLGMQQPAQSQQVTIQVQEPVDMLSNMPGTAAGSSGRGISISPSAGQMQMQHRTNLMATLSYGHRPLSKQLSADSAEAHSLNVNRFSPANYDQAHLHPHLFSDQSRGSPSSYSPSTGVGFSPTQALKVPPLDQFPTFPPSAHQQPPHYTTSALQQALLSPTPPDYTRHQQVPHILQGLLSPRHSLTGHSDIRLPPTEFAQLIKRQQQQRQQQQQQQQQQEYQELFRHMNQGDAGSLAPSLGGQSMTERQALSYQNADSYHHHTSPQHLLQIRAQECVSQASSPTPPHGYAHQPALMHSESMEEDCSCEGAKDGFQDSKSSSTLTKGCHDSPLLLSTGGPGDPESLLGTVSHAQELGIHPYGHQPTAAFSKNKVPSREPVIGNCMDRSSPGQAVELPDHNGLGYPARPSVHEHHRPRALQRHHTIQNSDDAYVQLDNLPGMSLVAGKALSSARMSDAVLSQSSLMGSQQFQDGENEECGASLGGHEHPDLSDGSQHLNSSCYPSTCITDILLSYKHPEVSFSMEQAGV
UniProt O00506, whole entry: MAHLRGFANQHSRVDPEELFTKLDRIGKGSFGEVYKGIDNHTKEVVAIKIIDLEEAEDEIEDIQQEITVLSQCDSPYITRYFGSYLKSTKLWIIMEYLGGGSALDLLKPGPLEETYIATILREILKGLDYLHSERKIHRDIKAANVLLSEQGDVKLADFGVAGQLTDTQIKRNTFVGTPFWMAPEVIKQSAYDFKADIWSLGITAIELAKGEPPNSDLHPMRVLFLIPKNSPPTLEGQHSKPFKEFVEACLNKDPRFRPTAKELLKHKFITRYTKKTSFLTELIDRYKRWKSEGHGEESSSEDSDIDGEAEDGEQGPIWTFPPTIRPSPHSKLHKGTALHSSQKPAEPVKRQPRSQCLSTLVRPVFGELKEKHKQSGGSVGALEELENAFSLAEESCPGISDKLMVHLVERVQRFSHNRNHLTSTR

BTK = target: T2, BTK (Homo sapiens, UniProt Q06187); assay: HotSpot kinase assay; format: biochemical; settings: 10µM
T2 construct: purchased Reaction Biology Corporation

c-MET = target: T3, c-MET (Homo sapiens, UniProt P08581); format: biochemical; settings: 10µM
T3 construct: purchased Reaction Biology Corporation

CDK16/cyclin Y (PCTAIRE) = target: T4, CDK16/cyclin Y (PCTAIRE) (Homo sapiens, UniProt Q00536); assay: HotSpot kinase assay; format: biochemical; settings: 10µM
T4 construct: purchased Reaction Biology Corporation

CDK4/cyclin D3 = target: T5, CDK4/cyclin D3 (Homo sapiens, UniProt P11802); assay: HotSpot kinase assay; format: biochemical; settings: 10µM
T5 construct: purchased Reaction Biology Corporation

CDK6/cyclin D3 = target: T6, CDK6/cyclin D3 (Homo sapiens, UniProt Q00534); assay: HotSpot kinase assay; format: biochemical; settings: 10µM
T6 construct: purchased Reaction Biology Corporation

CHK1 = target: T7, CHK1 (Homo sapiens, UniProt O14757); assay: HotSpot kinase assay; format: biochemical; settings: 10µM
T7 construct: purchased Reaction Biology Corporation

CHK2 = target: T8, CHK2 (Homo sapiens, UniProt O96017); assay: HotSpot kinase assay; format: biochemical; settings: 10µM
T8 construct: purchased Reaction Biology Corporation

CLK2 = target: T9, CLK2 (Homo sapiens, UniProt P49760); assay: HotSpot kinase assay; format: biochemical; settings: 10µM
T9 construct: purchased Reaction Biology Corporation

DAPK1 = target: T10, DAPK1 (Homo sapiens, UniProt P53355); assay: HotSpot kinase assay; format: biochemical; settings: 10µM
T10 construct: purchased Reaction Biology Corporation

DDR1 = target: T11, DDR1 (Homo sapiens, UniProt Q08345); assay: HotSpot kinase assay; format: biochemical; settings: 10µM
T11 construct: purchased Reaction Biology Corporation

ERN2/IRE2 = target: T12, ERN2/IRE2 (Homo sapiens, UniProt Q76MJ5); assay: HotSpot kinase assay; format: biochemical; settings: 10µM
T12 construct: purchased Reaction Biology Corporation

FER = target: T13, FER (Homo sapiens, UniProt P16591); assay: HotSpot kinase assay; format: biochemical; settings: 10µM
T13 construct: purchased Reaction Biology Corporation

FGR = target: T14, FGR (Homo sapiens, UniProt P09769); assay: HotSpot kinase assay; format: biochemical; settings: 10µM
T14 construct: purchased Reaction Biology Corporation

JAK3 = target: T15, JAK3 (Homo sapiens, UniProt P52333); assay: HotSpot kinase assay; format: biochemical; settings: 10µM
T15 construct: purchased Reaction Biology Corporation

LATS1 = target: T16, LATS1 (Homo sapiens, UniProt O95835); assay: HotSpot kinase assay; format: biochemical; settings: 10µM
T16 construct: purchased Reaction Biology Corporation

LATS2 = target: T17, LATS2 (Homo sapiens, UniProt Q9NRM7); assay: HotSpot kinase assay; format: biochemical; settings: 10µM
T17 construct: purchased Reaction Biology Corporation

MAPKAPK5/PRAK = target: T18, MAPKAPK5/PRAK (Homo sapiens, UniProt Q8IW41); assay: HotSpot kinase assay; format: biochemical; settings: 10µM
T18 construct: purchased Reaction Biology Corporation

MEK3 = target: T19, MEK3 (Homo sapiens, UniProt P46734); assay: HotSpot kinase assay; format: biochemical; settings: 10µM
T19 construct: purchased Reaction Biology Corporation

MINK/MINK1 = target: T20, MINK/MINK1 (Homo sapiens, UniProt Q8N4C8); assay: HotSpot kinase assay; format: biochemical; settings: 10µM
T20 construct: purchased Reaction Biology Corporation

MLK4 = target: T21, MLK4 (Homo sapiens, UniProt Q5TCX8); assay: HotSpot kinase assay; format: biochemical; settings: 10µM
T21 construct: purchased Reaction Biology Corporation

MSSK1/STK23 = target: T22, MSSK1/STK23 (Homo sapiens, UniProt Q9UPE1); assay: HotSpot kinase assay; format: biochemical; settings: 10µM
T22 construct: purchased Reaction Biology Corporation

NEK1 = target: T23, NEK1 (Homo sapiens, UniProt Q96PY6); assay: HotSpot kinase assay; format: biochemical; settings: 10µM
T23 construct: purchased Reaction Biology Corporation

NEK2 = target: T24, NEK2 (Homo sapiens, UniProt P51955); assay: HotSpot kinase assay; format: biochemical; settings: 10µM
T24 construct: purchased Reaction Biology Corporation

PDGFRa = target: T25, PDGFRa (Homo sapiens, UniProt P16234); assay: HotSpot kinase assay; format: biochemical; settings: 10µM
T25 construct: purchased Reaction Biology Corporation

PIM1 = target: T26, PIM1 (Homo sapiens, UniProt P11309); assay: HotSpot kinase assay; format: biochemical; settings: 10µM
T26 construct: purchased Reaction Biology Corporation

PKD2/PRKD2 = target: T27, PKD2/PRKD2 (Homo sapiens, UniProt Q9BZL6); assay: HotSpot kinase assay; format: biochemical; settings: 10µM
T27 construct: purchased Reaction Biology Corporation

PKG1a = target: T28, PKG1a (Homo sapiens, UniProt Q13976); assay: HotSpot kinase assay; format: biochemical; settings: 10µM
T28 construct: purchased Reaction Biology Corporation

PKG2/PRKG2 = target: T29, PKG2/PRKG2 (Homo sapiens, UniProt Q13237); assay: HotSpot kinase assay; format: biochemical; settings: 10µM
T29 construct: purchased Reaction Biology Corporation

PKN2/PRK2 = target: T30, PKN2/PRK2 (Homo sapiens, UniProt Q16513); assay: HotSpot kinase assay; format: biochemical; settings: 10µM
T30 construct: purchased Reaction Biology Corporation

PKN3/PRK3 = target: T31, PKN3/PRK3 (Homo sapiens, UniProt Q6P5Z2); assay: HotSpot kinase assay; format: biochemical; settings: 10µM
T31 construct: purchased Reaction Biology Corporation

ROCK1 = target: T32, ROCK1 (Homo sapiens, UniProt Q13464); assay: HotSpot kinase assay; format: biochemical; settings: 10µM
T32 construct: purchased Reaction Biology Corporation

ROCK2 = target: T33, ROCK2 (Homo sapiens, UniProt O75116); assay: HotSpot kinase assay; format: biochemical; settings: 10µM
T33 construct: purchased Reaction Biology Corporation

SIK3 = target: T34, SIK3 (Homo sapiens, UniProt Q9Y2K2); assay: HotSpot kinase assay; format: biochemical; settings: 10µM
T34 construct: purchased Reaction Biology Corporation

SRPK2 = target: T35, SRPK2 (Homo sapiens, UniProt P78362); assay: HotSpot kinase assay; format: biochemical; settings: 10µM
T35 construct: purchased Reaction Biology Corporation

STK25/YSK1 = target: T36, STK25/YSK1 (Homo sapiens, UniProt O00506); assay: HotSpot kinase assay; format: biochemical; settings: 10µM
T36 construct: purchased Reaction Biology Corporation

TRKC = target: T37, TRKC (Homo sapiens, UniProt Q16288); assay: HotSpot kinase assay; format: biochemical; settings: 10µM
T37 construct: purchased Reaction Biology Corporation

TSSK2 = target: T38, TSSK2 (Homo sapiens, UniProt Q96PF2); assay: HotSpot kinase assay; format: biochemical; settings: 10µM
T38 construct: purchased Reaction Biology Corporation

TYK2 = target: T39, TYK2 (Homo sapiens, UniProt P29597); assay: HotSpot kinase assay; format: biochemical; settings: 10µM
T39 construct: purchased Reaction Biology Corporation

WNK1 = target: T40, WNK1 (Homo sapiens, UniProt Q9H4A3); assay: HotSpot kinase assay; format: biochemical; settings: 10µM
T40 construct: purchased Reaction Biology Corporation

ZAK/MLTK = target: T41, ZAK/MLTK (Homo sapiens, UniProt Q9NYL2); assay: HotSpot kinase assay; format: biochemical; settings: 10µM
T41 construct: purchased Reaction Biology Corporation

CO[C@@H]1[C@H](N(C)C(=O)CCC(=O)NCc2cn(CCCS(=O)(=O)O)nn2)C[C@H]2O[C@]1(C)n1c3ccccc3c3c4c(c5c6ccccc6n2c5c31)C(=O)NC4 [CIMSS]
% Enzyme Activity (relative to DMSO controls) (AXL): 3.52% | % Enzyme Activity (relative to DMSO controls) (BTK): 5.98% | % Enzyme Activity (relative to DMSO controls) (c-MET): 9.84% | % Enzyme Activity (relative to DMSO controls) (CDK16/cyclin Y (PCTAIRE)): 76.42% | % Enzyme Activity (relative to DMSO controls) (CDK4/cyclin D3): 84.60% | % Enzyme Activity (relative to DMSO controls) (CDK6/cyclin D3): 54.89% | % Enzyme Activity (relative to DMSO controls) (CHK1): 4.46% | % Enzyme Activity (relative to DMSO controls) (CHK2): 25.13% | % Enzyme Activity (relative to DMSO controls) (CLK2): 3.10% | % Enzyme Activity (relative to DMSO controls) (DAPK1): 13.55% | % Enzyme Activity (relative to DMSO controls) (DDR1): 0.67% | % Enzyme Activity (relative to DMSO controls) (ERN2/IRE2): 5.93% | % Enzyme Activity (relative to DMSO controls) (FER): 0.26% | % Enzyme Activity (relative to DMSO controls) (FGR): 1.11% | % Enzyme Activity (relative to DMSO controls) (JAK3): 0.84% | % Enzyme Activity (relative to DMSO controls) (LATS1): 9.79% | % Enzyme Activity (relative to DMSO controls) (LATS2): 6.32% | % Enzyme Activity (relative to DMSO controls) (MAPKAPK5/PRAK): 84.10% | % Enzyme Activity (relative to DMSO controls) (MEK3): 47.29% | % Enzyme Activity (relative to DMSO controls) (MINK/MINK1): -1.70% and -1.95% | % Enzyme Activity (relative to DMSO controls) (MLK4): 0.85% | % Enzyme Activity (relative to DMSO controls) (MSSK1/STK23): 67.63% | % Enzyme Activity (relative to DMSO controls) (NEK1): 5.78% | % Enzyme Activity (relative to DMSO controls) (NEK2): 18.42% | % Enzyme Activity (relative to DMSO controls) (PDGFRa): 5.54% | % Enzyme Activity (relative to DMSO controls) (PIM1): 0.79% | % Enzyme Activity (relative to DMSO controls) (PKD2/PRKD2): 11.75% | % Enzyme Activity (relative to DMSO controls) (PKG1a): 6.41% | % Enzyme Activity (relative to DMSO controls) (PKG2/PRKG2): 1.33% | % Enzyme Activity (relative to DMSO controls) (PKN2/PRK2): 6.60% | % Enzyme Activity (relative to DMSO controls) (PKN3/PRK3): 14.75% | % Enzyme Activity (relative to DMSO controls) (ROCK1): 25.74% | % Enzyme Activity (relative to DMSO controls) (ROCK2): 12.53% | % Enzyme Activity (relative to DMSO controls) (SIK3): 0.42% and 0.08% | % Enzyme Activity (relative to DMSO controls) (SRPK2): 7.62% | % Enzyme Activity (relative to DMSO controls) (STK25/YSK1): 3.00% | % Enzyme Activity (relative to DMSO controls) (TRKC): 0.18% | % Enzyme Activity (relative to DMSO controls) (TSSK2): 21.04% | % Enzyme Activity (relative to DMSO controls) (TYK2): 5.86% | % Enzyme Activity (relative to DMSO controls) (WNK1): 107.75% | % Enzyme Activity (relative to DMSO controls) (ZAK/MLTK): 82.32% | viability (nuclei relative to the DMSO control) (Huh-7.5 cells; 24h, 0.78125 uM): 82.02% and 92.58% | viability (nuclei relative to the DMSO control) (Huh-7.5 cells; 24h, 1.5625 uM): 95.02% and 79.38% | viability (nuclei relative to the DMSO control) (Huh-7.5 cells; 24h, 3.125 uM): 97.46% and 88.74% | viability (nuclei relative to the DMSO control) (Huh-7.5 cells; 24h, 25 uM): 93.3% and 92.73% | viability (nuclei relative to the DMSO control) (Huh-7.5 cells; 24h, 50 uM): 87.27% and 89.31% | viability (nuclei relative to the DMSO control) (Huh-7.5 cells; 72 h, 0.78125 uM): 98.61% and 93.6809% | viability (nuclei relative to the DMSO control) (Huh-7.5 cells; 72 h, 25 uM): 65.5% and 71.82% | viability (nuclei relative to the DMSO control) (Huh-7.5 cells; 72 h, 50 uM): 68.9% and 78.72%
